In publication PMC3583384 (Journal of medicinal chemistry, 2012):
Read-outs that look alike come from different tables or passages of the source.

Tests used:
[1] = system: rats with normal iron stores; conditions: rats po 237 µmol/kg/dose b.i.d. (474 µmol/kg/d), planned 7 d, n = 5
[2] = system: rats with normal iron stores; conditions: rat, in vivo, po; cited from earlier work

SMILES	survival of the dosing period [1]	survival of the dosing period [2]
C[C@]1(C(=O)[O-])CSC(c2ncc(O)cc2O)=N1.[Na+] [Compound 6, (S)-4,5-dihydro-2-(3,5-dihydroxy-2-pyridinyl)-4-methyl-4-thiazolecarboxylic acid]	survived the full 7 d of treatment	
COCCOCCOc1ccnc(C2=N[C@@](C)(C(=O)[O-])CS2)c1O.[Na+] [Compound 10, (S)-4,5-dihydro-2-[3-hydroxy-4-(3,6-dioxaheptyloxy)-2-pyridinyl]-4-methyl-4-thiazolecarboxylic acid]	All of the animals survived the drug dosing regimen	
C[C@]1(C(=O)[O-])CSC(c2ccc(O)cc2O)=N1.[Na+] [Compound 3, (S)-2-(2,4-dihydroxyphenyl)-4,5-dihydro-4-methyl-4-thiazolecarboxylic acid]		all of the treated rats (n = 3) survived
C[C@]1(C(=O)[O-])CSC(c2ncccc2O)=N1.[Na+] [Compound 1, (S)-4,5-dihydro-2-(3-hydroxy-2-pyridinyl)-4-methyl-4-thiazolecarboxylic acid]	None of the 1-treated rats (n = 5) survived the planned 7-d exposure	
COCCOCCOc1cnc(C2=N[C@@](C)(C(=O)[O-])CS2)c(O)c1.[Na+] [Compound 8, (S)-4,5-dihydro-2-[3-hydroxy-5-(3,6-dioxaheptyloxy)-2-pyridinyl]-4-methyl-4-thiazolecarboxylic acid]	All of the animals survived the drug dosing regimen	
